Reference: patent publication US11685744B2, “CDK inhibitors and their use as pharmaceuticals” (Prelude Therapeutics, Incorporated, priority 2020, dated 2023)

By UniProt entry, the sequences of proteins in these tests, tags left out.
UniProt P11802, whole entry: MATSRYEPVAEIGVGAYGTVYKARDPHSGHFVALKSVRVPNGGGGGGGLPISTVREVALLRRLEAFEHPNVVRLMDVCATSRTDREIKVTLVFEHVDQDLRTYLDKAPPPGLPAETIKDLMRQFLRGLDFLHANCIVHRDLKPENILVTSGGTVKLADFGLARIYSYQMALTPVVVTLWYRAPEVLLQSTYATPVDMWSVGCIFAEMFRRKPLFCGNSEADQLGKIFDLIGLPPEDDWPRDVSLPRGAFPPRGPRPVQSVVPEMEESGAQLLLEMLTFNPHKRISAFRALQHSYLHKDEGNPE
UniProt P24385, whole entry partner: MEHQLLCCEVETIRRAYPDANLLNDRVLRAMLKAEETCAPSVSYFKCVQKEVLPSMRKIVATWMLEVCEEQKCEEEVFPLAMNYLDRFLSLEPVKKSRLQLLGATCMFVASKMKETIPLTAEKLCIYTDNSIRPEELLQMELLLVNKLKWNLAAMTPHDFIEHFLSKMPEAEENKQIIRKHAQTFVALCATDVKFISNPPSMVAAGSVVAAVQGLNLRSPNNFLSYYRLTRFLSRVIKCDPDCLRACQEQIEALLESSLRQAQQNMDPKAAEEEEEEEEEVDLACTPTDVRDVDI

Target: CDK4/Cyclin D1 (Homo sapiens (Human), UniProt P11802)
Assay: CDK4/CyclinD1 enzymatic activity assay (TR-FRET)
Details: read-out: CDK4_D1 IC50, ATP 2 mM, tested form: TFA
Protocol: CDK4/CyclinD1 Enzymatic Activity Assay
The inhibitory activity of compounds was evaluated in vitro using TR-FRET assay with white 384-well low volume microplate (Greiner Bio-One). CDK4/Cyclin D1 catalyzed phosphorylation of peptide in the presence and absence of compounds was measured. IC50 determination. Recombinant protein complex CDK4/Cyclin D1, expressed from insect cell, was purchased from ProQinase. Testing compounds were dissolved in DMSO at 0.1 mM and tested in 9-dose IC50 mode. The reaction mixture was prepared by mixing CDK4/CyclinD1 (1 nM final), ULight-4E-BP1 (100 nM final, Perkinelmer, TRF0128-D), and ATP (2 mM final) in assay buffer (20 mM of HEPES pH 7.4, 1 mM of EGTA, 0.05% BSA, 0.005% Tween 20, and 1 mM TCEP). The compound of interest in DMSO was added to each well in 3-fold serial dilution by dispenser (TECAN D300E). After 20 minutes preincubation at room temperature, MgCl2 (10 mM final) was added to initiate the reaction. […] The reaction signal was measured by Envision multimode plate reader (PerkinElmer, 2102-0010). IC50 values were determined by fitting the data to the standard 4 parameters with Hill Slope using GraphPad Prism software.

For Cc1c(-c2nc(Nc3ccc(C4CCN(C)CC4)cn3)ncc2F)sc2c(C(C)C)c[n+]([O-])cc12, which IC50 is on record?
Its IC50 is 20 to 200 nM.
